Tested on: norepinephrine neuronal reuptake
Test: In vitro neuronal norepinephrine reuptake
Settings: animals

**Q.** How did the “effects on norepinephrine neuronal reuptake” value turn out when CN[C@H]1CC[C@@H](c2ccc(Cl)c(Cl)c2)c2ccccc21.Cl [sertraline, (1S-cis)-4-(3,4-dichlorophenyl)-1,2,3,4-tetrahydro-N-methyl-1-naphthalenamine hydrochloride] was run?
**A.** Its value is “only very weak effects”.

Reference: patent US6281248A, “Composition for treating asthma” (priority 2000, dated 2001)
